Target: Mu-type opioid receptor (Cavia porcellus, UniProt P97266)
Test: Agonistic activity towards Opioid receptors in the guinea pig ileum

Protein sequences, listed by entry. Tags and fused reporters are not part of them.
UniProt P97266, whole entry, looked up: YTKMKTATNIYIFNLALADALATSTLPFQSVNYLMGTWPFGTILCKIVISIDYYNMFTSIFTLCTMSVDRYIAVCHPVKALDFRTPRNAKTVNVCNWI

CC[C@H](C)[C@H](NC(=O)[C@H](CCCNC(=N)N)NC(=O)[C@H](CCCNC(=N)N)NC(=O)[C@H](CC(C)C)NC(=O)[C@H](Cc1ccccc1)NC(=O)[C@@H](C)NC(=O)CNC(=O)[C@@H](N)Cc1ccc(O)cc1)C(=O)N[C@@H](CCCNC(=N)N)C(=O)N1CCC[C@H]1C(=O)N[C@@H](CCCCN)C(N)=O gave an IC50 of 2.4 nM.
